The values below come from patent US20260116921A1, “PEPTIDE INHIBITORS OF INTERLEUKIN-23 RECEPTOR AND THEIR USE TO TREAT INFLAMMATORY DISEASES” (priority 2018, published 2026).

As usually defined, the IC50 is the point on the concentration scale where inhibition reaches its midpoint. What is called half-life is the time in which the quantity being followed falls by half. A high value points to slow decline.

The test system of one data set is NK cells. Put plainly: NK cell based assay (IL-23/IL-18-induced IFNγ, Quantikine ELISA). Conditions: human primary NK cells, IL-23 at EC50 to EC75 + IL-18 10 ng/mL, IFNγ after 20 to 24 hours. As to the method: killer (NK) cells, purified from human peripheral blood of healthy donors by negative selection (Miltenyi Biotech, Cat #130-092-657), were cultured in complete media (RPMI 1640 containing […], L-glutamine and penicillin-streptomycin) in the presence of IL-2 (RnD, Cat #202-IL-010/CF) at 25 ng/mL. After 7 days, cells were centrifuged, and resuspended in complete media at IE6 cells/mL. […] After 20 to 24 hours, IFNγ in the supernatant was quantified using Quantikine ELISA (RnD, Cat #DIF50).

A further data set has as its target T1, IL-23R (Homo sapiens, UniProt Q5VWK5).
T1 sequence (Q5VWK5 24-629): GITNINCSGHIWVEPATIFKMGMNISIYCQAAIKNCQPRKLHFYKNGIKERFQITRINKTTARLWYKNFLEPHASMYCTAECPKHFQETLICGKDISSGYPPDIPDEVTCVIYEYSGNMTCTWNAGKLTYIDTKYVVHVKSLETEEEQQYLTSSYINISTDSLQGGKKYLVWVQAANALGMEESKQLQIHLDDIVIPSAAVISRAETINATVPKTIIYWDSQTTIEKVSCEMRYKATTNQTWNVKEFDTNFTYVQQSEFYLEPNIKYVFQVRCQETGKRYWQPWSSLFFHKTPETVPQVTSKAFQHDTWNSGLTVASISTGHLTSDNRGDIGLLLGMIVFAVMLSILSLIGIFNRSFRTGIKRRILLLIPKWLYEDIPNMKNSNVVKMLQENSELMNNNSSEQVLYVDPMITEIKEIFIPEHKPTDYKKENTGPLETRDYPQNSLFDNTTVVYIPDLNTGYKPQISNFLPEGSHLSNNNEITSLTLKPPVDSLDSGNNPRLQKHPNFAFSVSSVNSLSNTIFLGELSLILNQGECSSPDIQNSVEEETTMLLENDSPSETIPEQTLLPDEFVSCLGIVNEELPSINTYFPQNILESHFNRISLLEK
Put plainly: DB cells IL23R pSTAT3 cell assay (pStat3 HTRF). Conditions: Table E3, IL-23 0.5 nM, 30 minutes at 37° C. It is filed as cell-based. An excerpt:
Human ELISA indicates the IL23-IL23R competitive binding assay described below, Rat ELISA indicates the rat IL-23R competitive binding ELISA assay described below, and pStat3HTRF indicates the DB cells IL-23R pSTAT3 cell assay described below. The peptides depicted in Table E1 are cyclized via a disulfide bridge formed between two Pen residues in these peptides. The peptides depicted in Table E2 are cyclized via a thioether bond between the indicated amino acid residues. Table E2 provides an illustrative structure depicting thioether cyclization, which is indicated in the table by the term “cyclo,” with the cyclic region bracketed immediately following the term “cyclo.” For certain peptides, the residue Abu is present where indicated, whereas in other embodiments, e.g., those related to the non-cyclized form, the Abu may be referred to as a hSer(Cl) or homoSer residue.
DB Cells IL23R pSTAT3 Cell Assay
IL-23 plays a central role in supporting and maintaining Th17 differentiation in vivo. […] Changes in phospho-STAT3 levels in the cell lysates were detected using the Cisbio HTRF pSTAT3 (Tyr705) Cellular Assay Kit (Cisbio #62AT3PEH), according to manufacturer's Two Plate Assay protocol.

Data set [1] is described as follows: in vitro. Conditions: human, tissue homogenate, pH 6.8.
For data set [2] the following is noted: simulated intestinal fluid, pancreatin, pH 6.8, 37° C.; § matrix is 100 fold dilution of standard SIF concentration.
The nature of data set [3]: Stability in simulated gastric fluid (SGF). The format is in vitro ADME. Conditions: porcine pepsin, pH=2, 37° C., 20 μM peptide. The procedure: SGF was prepared by adding 20 mg NaCl, 32 mg porcine pepsin (MP Biochemicals, catalog 02102599), and 70 μl HCl to 10 ml water (final pH=2). Aliquots of SGF (0.5 ml each) were pre-warmed at 37° C. To start the reaction, 1 μl of peptide stock solution (10 mM in DMSO) was added to 0.5 ml SGF and thoroughly mixed such that the final peptide concentration was 20 μM. The reactions were incubated at 37° C. with gentle shaking. At each time point (0, 15, 30, 60 min) 50 μl aliquots were removed and added to 200 ul acetonitrile containing 0.1% formic acid to quench the reaction.

Data set [4] is described as follows: in vitro. Conditions: both, SD, rat, plasma.
Data set [5] can be described thus: in vitro. Conditions: cynomolgus monkey, tissue homogenate, pH 6.8.
The nature of data set [6]: in vitro. The conditions noted are these: simulated gi fluid, pH 6.8.

For `CC(=O)NCCCC[C@H](NC(=O)[C@](C)(CC(C)C)NC(=O)[C@H](Cc1ccc2ccccc2c1)NC(=O)[C@H](Cc1ccc(OCCN)cc1)NC(=O)[C@H]1NC(=O)[C@H](CCC(N)=O)NC(=O)[C@H](Cc2c[nH]c3c(C)cccc23)NC(=O)[C@H]([C@@H](C)O)NC(=O)[C@H](CC(N)=O)NC(=O)[C@@H](NC(C)=O)C(C)(C)SSC1(C)C)C(=O)N[C@@H](Cc1c[nH]cn1)C(=O)NCCC(N)=O` [compound 214], the IC50 is below 10 nM in the data set on NK cells and 1 to 10 nM against IL-23R. Further, the half-life in the data set “in vitro [1]” was above 24 h; in “in vitro [4]”, 1 h; in “in vitro [5]” it was above 24 h. The “SIF t½” value in data set [2] was 24 h. Moreover, in data set [3], the “SGF t½” value was 24 h.
`CC(=O)NCCCC[C@H](NC(=O)[C@](C)(CCCCN)NC(=O)[C@H](Cc1ccc2ccccc2c1)NC(=O)[C@H](Cc1ccc(OCCN)cc1)NC(=O)[C@H]1NC(=O)[C@H](CCCCNC(=O)Cc2ccccc2)NC(=O)[C@H](Cc2c[nH]c3c(C)cccc23)NC(=O)[C@H]([C@@H](C)O)NC(=O)[C@H](CC(N)=O)NC(=O)[C@@H](NC(C)=O)C(C)(C)SSC1(C)C)C(=O)N[C@@H](CC(N)=O)C(=O)N[C@H](CC(C)C)C(N)=O` [compound 318]: the half-life in the data set “in vitro [6]” is 20 h.
